According to patent US9790189B2, “Disubstituted 5-fluoro pyrimidine derivatives containing a sulfondiimine group” (Bayer Pharma Aktiengesellschaft, priority 2014, dated 2017):

Experiments:
[1] = target: T1, CDK2/CycE (Homo sapiens, UniProt P24941); test: CDK2/CycE kinase assay (TR-FRET, Method 2a)
[2] = target: T1, CDK2/CycE; test: CDK2/CycE high ATP kinase assay (TR-FRET, Method 2b)

IC50 [1]: 0.79 µM
IC50 [2]: 10.5 µM
Compound: COc1cc(F)ccc1-c1nc(Nc2cc(F)cc(CS(C)(=N)=N)c2)ncc1F [Example 1, 5-Fluoro-4-(4-fluoro-2-methoxyphenyl)-N-{3-fluoro-5-[(S-methylsulfonodiimidoyl)methyl]phenyl}pyrimidin-2-amine]
